For one series, the system named is Swiss-Webster mice. Nature of the series: Reversal of morphine analgesia, 49° C. TW test. Particulars: 25 nmol OFQ i.c.v.
The test system of a further series is C57BL/6J mice. Nature of the series: Precipitation of withdrawal in morphine dependent mice (withdrawal jumping). Particulars: OFQ doses >5 nmole.
Another series relates to mice. In words: Nociception in mice (hot plate, toe- and tail-pinch) after icv or intrathecal administration.

As to `CC(C)C[C@H](NC(=O)[C@H](CCCCN)NC(=O)[C@H](CCCN=C(N)N)NC(=O)[C@H](C)NC(=O)[C@H](CO)NC(=O)[C@H](CCCCN)NC(=O)[C@H](CCCN=C(N)N)NC(=O)[C@H](C)NC(=O)CNC(=O)[C@@H](NC(=O)[C@H](Cc1ccccc1)NC(=O)CNC(=O)CNC(=O)[C@@H](N)Cc1ccccc1)[C@@H](C)O)C(=O)N[C@@H](C)C(=O)N[C@@H](CC(N)=O)C(=O)N[C@@H](CCC(N)=O)C(=O)O` [OFQ], the “marked atonia and flaccid paralysis” value in the series on Swiss-Webster mice is “up to 50 % of mice”. The “atonia in morphine-dependent mice” value in the series on C57BL/6J mice was “produced atonia in some morphine-dependent mice”. The “side effects at the highest intrathecal dose” value in the series on mice was “hind limb paralysis and decrease in locomotor activity”.

(Values after patent US20010010919A1 (priority 1998, published 2001).)
